What was measured:
Assay in all cases: SPR
Conditions in all cases: Fc fusion
[1] = target: native Semliki Forest virus (SFV) virion (Semliki Forest virus)
[2] = target: native Semliki Forest virus (SFV) virion (Semliki Forest virus); remark: listed apart in the source
[3] = target: native Semliki Forest virus (SFV) virion (Semliki Forest virus); remark: listed apart in the source

## LA5-Fc (from UniProt P98155-1 190-237)
[1]
  Kd: 15.7 µM
[2]
  Kd: 14.1 µM
[3]
  Kd: 15 µM

From publication PMC11661604
